Data published in PubChem BioAssay AID1665 (Sanford-Burnham Center for Chemical Genomics, 2009).
“And” between values parts separate entries of the source, which are not always exact repeats. Equal values may be shown once. The entries are a selection whose mix differs from that of the whole data set. Some salts or complexes appear as unconnected parts, following the source record. The source made the active and inactive calls.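 Rule for the calls: active = nuclear translocation activity above 50% at 5 µM, with a well cell count of 50 or more; inconclusive = wells under 50 cells across six images, flagged as toxic; inactive = the rest.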

assay: beta-catenin nuclear localization change in HeLa – imaging, HeLa cells, immunofluorescence, high-content, primary screen (AID 1665); conditions: at 5 µM, active compounds read high;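 note: per-cell ratio of nuclear to cytoplasmic median beta-catenin stain intensity; plate controls were DMSO negative control for no effect and GSK-3 inhibitor IX positive control for full effect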

SMILES	nuclear translocation activity
COc1ccccc1OP(C)(=O)Nc1ccc(C)cc1C (stereo not drawn)	inactive: -2%
CP(=O)(Nc1ccccn1)Oc1ccccc1 (stereo not drawn)	inactive: -0.1%
Cc1c2non([O-])c-2c(C)[n+](=O)[n+]1[O-]	inactive: -0.2%
O=C(NC(Sc1ccncn1)C(Cl)(Cl)Cl)c1ccccc1 (stereo not drawn)	inactive: -2.1%
O=[N+]([O-])c1cc([N+](=O)[O-])c(Nc2ccccn2)c([N+](=O)[O-])c1	inactive: 3.3%
Nc1cc(N)c2nonc2c1[N+](=O)[O-]	inactive: -0.8%
Cc1c(NP(C)(=O)Oc2ccc(C(C)C)cc2)c(=O)n(-c2ccccc2)n1C (stereo not drawn)	inactive: 0.3%
CN(C)CCOC(=O)C(O)(c1ccccc1)C1CCCC1 (stereo not drawn)	inactive: -4%
Clc1ccc(Cl)c(NC2=NCC(CBr)S2)c1 (stereo not drawn)	inactive: 0%
CN1CCCC(OC(=O)C(c2ccccc2)c2ccccc2)C1 (stereo not drawn)	inactive: -1.2%
Cc1ccc(OP(=O)(Nc2nccs2)Oc2ccc(C)cc2)cc1	inactive: -1%
COc1ccccc1OP(=O)(Nc1ccc(C)cn1)Oc1ccccc1OC	inactive: -1.5%
Cc1ccc(N/C(=N/P(=O)(N2CCOCC2)N2CCOCC2)N2CCOCC2)cc1	inactive: -5.1%
COc1ccccc1OP(C)(=O)Nc1ccc(Br)cc1 (stereo not drawn)	inactive: -0.8%
NC(=O)c1cc([N+](=O)[O-])cc([N+](=O)[O-])c1N	inactive: 1.9%
CP(=O)(OCCOc1ccccc1)OCCOc1ccccc1	inactive: -0.3%
CP(=O)(Nc1ccc(Cl)cc1Cl)Oc1ccccc1 (stereo not drawn)	inactive: -2.3%
Nc1cccc2ccc([As](=O)(O)O)cc12	inactive: -3.9%
CCN(N=Nc1nonc1N)c1nonc1N	inactive: -1.8%
Cc1nc2ccc3ccccc3c2o1.O=[N+]([O-])c1cc([N+](=O)[O-])c(O)c([N+](=O)[O-])c1	inactive: -5.2%
COc1ccc(OP(C)(=O)Nc2ccccc2Br)cc1 (stereo not drawn)	inactive: -0.7%
Cc1ccc(NP(=O)(Oc2ccccc2F)Oc2ccccc2F)nc1	inactive: 0.3%
COc1ccccc1OP(C)(=O)Nc1ccc(C)c(C)c1 (stereo not drawn)	inactive: -1.4%
CCOP(=O)(Nc1ccccc1)OCC	inactive: -4.2% and inactive: -2.6%
Cc1cc(SC(NC(=O)c2ccc(F)cc2)C(Cl)(Cl)Cl)ncn1 (stereo not drawn)	inactive: -2.7%

SMILES	nuclear translocation activity
Cc1cc(C)cc(OP(C)(=O)Nc2cccc(C(F)(F)F)c2)c1 (stereo not drawn)	inactive: 1.8%
O=P(Nc1nc2ccc(Cl)cc2s1)(c1ccccc1)c1ccccc1	inactive: -0.5%
O=C(O)c1ccccc1[As](=O)(O)O	inactive: -0.3%
CC(=O)Nc1ccc([As](=O)(O)O)cc1	inactive: -4%
CN(C)C(=O)Oc1noc2ccccc12	inactive: -0.3%
O=c1c2cc([N+](=O)[O-])ccc2[nH]c2c([N+](=O)[O-])cc([N+](=O)[O-])cc12	inactive: 1.3%
CCCCCOc1ccc(NP(C)(=O)Oc2ccc(Cl)cc2Cl)cc1 (stereo not drawn)	inactive: 0.8%
Cc1ccccc1OP(=O)(Nc1ccccn1)Oc1ccccc1C	inactive: -1.1%
CP(=O)(Nc1ccccc1)Oc1ccc(F)cc1 (stereo not drawn)	inactive: -2.5%
CCN(CC)CCCOC(=O)C(O)(c1ccccc1)C1CCCCC1 (stereo not drawn)	inactive: 1.2%
Cc1ccc(OP(=O)(Nc2ccccn2)Oc2ccc(C)cc2)cc1	inactive: -1.2%
CC(=O)NC(SC(=S)N(CC(C)C)CC(C)C)C(Cl)(Cl)Cl (stereo not drawn)	inactive: 1.8%
COC(=O)c1cc2c(s1)N=C(c1ccccc1)N(C)P2(=O)N1CCOCC1 (stereo not drawn)	inactive: -1%
COc1ccc(OP(C)(=O)Nc2ccc(SC(F)(F)F)cc2)cc1 (stereo not drawn)	inactive: -3.3%
CCOC(=O)c1ccc(NP(C)(=O)Oc2ccc(F)cc2)cc1 (stereo not drawn)	inactive: -1.8%
CCOC(=O)NC(Sc1ccccc1)C(Cl)(Cl)Cl (stereo not drawn)	inactive: -1.6%
Cc1ccc(NP(=O)(Oc2cccc(C)c2)Oc2cccc(C)c2)nc1	inactive: -0.6%
c1ccc(-c2nn[nH]n2)c(-c2nn[nH]n2)c1	inactive: -0.4%
O=C(NC1CCS(=O)(=O)C1)NP(=S)(Oc1ccccc1)Oc1ccccc1 (stereo not drawn)	inactive: -0.5%
CCNC(=S)/N=C(\N)N[N+](=O)[O-]	inactive: 0.7%
CC(=O)Nc1ccc(Oc2c([N+](=O)[O-])cc([N+](=O)[O-])cc2[N+](=O)[O-])cc1	inactive: -0.4%
COc1ccc2c(c1O)-c1c(O)c(OC)cc3c1[C@H](C2)[N+](C)(C)CC3.O=[N+]([O-])c1cc([N+](=O)[O-])c([O-])c([N+](=O)[O-])c1[O-]	inactive: -1.4%
CC(=O)Nc1ccc([As](=O)(O)O)c(O)c1	inactive: -0.2%
C[C@@H]1C=CCP(=O)(Oc2ccccc2)O1 (stereo partly drawn)	inactive: -1.6%
C[C@H]1OP(=O)(Oc2ccccc2)C[C@@H]2O[C@@H]21 (stereo partly drawn)	inactive: -0.2%

SMILES	nuclear translocation activity
O=C(OCCN1CCN(CCOCc2ccccc2)CC1)C(O)(c1ccccc1)c1ccccc1	inactive: -0.4%
O=C(OC1CN2CCC1CC2)c1ccc([N+](=O)[O-])cc1 (stereo not drawn)	inactive: 2.9%
CC(C)c1ccc(OP(C)(=O)Nc2ccc(SC(F)(F)F)cc2)cc1 (stereo not drawn)	inactive: -1.2%
CC(C)(C)C(=O)NC(Sc1ccccc1)C(Cl)(Cl)Cl (stereo not drawn)	inactive: 0.1%
CP(=O)(Nc1ccccc1F)Oc1ccccc1 (stereo not drawn)	inactive: -3.3%
CCOc1ccc(C2=NCC(CBr)S2)cc1 (stereo not drawn)	inactive: 0.4%
O=P1(Nc2nc3ccc(Cl)cc3s2)COc2ccccc2O1 (stereo not drawn)	inactive: -7.8%
Cc1ccccc1NP(C)(=O)Nc1ccccc1C	inactive: 2.2%
CP(=O)(Nc1ccc2c(c1)OCCO2)Oc1ccccc1 (stereo not drawn)	inactive: -2.9%
c1nnnn1CCn1cnnn1	inactive: 2.3%
CCOP(C)(=S)SCC(=O)NC(C)(CC)C(=O)O (stereo not drawn)	inactive: -2.5%
O=P(Nc1nccs1)(c1ccccc1)c1ccccc1	inactive: -0.6%
CC(C)C(=O)NC(Sc1ccccc1)C(Cl)(Cl)Cl (stereo not drawn)	inactive: 2.4%
CP(=O)(Nc1ccc(SC(F)(F)F)cc1)Oc1ccc(F)cc1 (stereo not drawn)	inactive: 0.6%
O=C(OC1CN2CCC1CC2)c1cccc(Cl)c1 (stereo not drawn)	inactive: 1.2%
Nc1ccc([As](=O)(O)c2ccc([N+](=O)[O-])cc2)cc1	inactive: -1.4%
C(Cc1nn[nH]n1)Cc1nn[nH]n1	inactive: -2.5%
O=[N+]([O-])c1cc([N+](=O)[O-])c(NCC2CCS(=O)(=O)C2)c([N+](=O)[O-])c1 (stereo not drawn)	inactive: 4.1%
Cc1cc(-c2cccc3ccccc23)c(C)cn1.O=[N+]([O-])c1cc([N+](=O)[O-])c(O)c([N+](=O)[O-])c1	inactive: 3.7%
O=[As](O)(c1ccccc1)c1ccc(O)cc1	inactive: -1.3%
O=[N+]([O-])c1ncn(CCn2cnc([N+](=O)[O-])n2)n1	inactive: -0.3%
CC(=O)NC(SC(=S)N(C)C)C(Cl)(Cl)Cl (stereo not drawn)	inactive: -0.2%
O=[N+]([O-])c1ccc(OP2(=O)COCCO2)cc1 (stereo not drawn)	inactive: 0.2%
COc1ccc(NP(C)(=O)Oc2ccccc2OC)cc1 (stereo not drawn)	inactive: 0.7%
C[C@H]1OP(=O)(Oc2ccccc2)[C@H](O)[C@H](O)[C@H]1N=[N+]=[N-] (stereo partly drawn)	inactive: -1.1%

SMILES	nuclear translocation activity
O=P(Nc1nc2ccccc2s1)(c1ccccc1)c1ccccc1	inactive: -1.6%
CN(C)CCOC(=O)C(O)(c1ccccc1)C1CCCCC1 (stereo not drawn)	inactive: -0.3%
O=P(Nc1ccccn1)(c1ccc(Br)cc1)c1ccc(Br)cc1	inactive: 0.8%
COc1ccc(OP(C)(=O)Nc2cccc(Br)c2)cc1 (stereo not drawn)	inactive: 1.8%
CP(=O)(Nc1ccc(SC(F)(F)F)cc1)Oc1ccccc1 (stereo not drawn)	inactive: -4%
Nc1cccc([As](=O)(O)c2ccccc2)c1	inactive: 1.1%
CCCOc1ccc(NP(C)(=O)Oc2ccc(Cl)cc2)cc1 (stereo not drawn)	inactive: -0.2%
O=P1(Nc2ccc(Br)cn2)COc2ccccc2OC1	inactive: 0.7%
O=[As](O)(c1cccs1)c1cccs1	inactive: -0.8%
Cc1ccc(OCC(=O)OC2CN3CCC2CC3)cc1 (stereo not drawn)	inactive: -1.1%
O=P1(Nc2ncccn2)COc2ccccc2OC1	inactive: -7.5%
CN1CCCCC1COC(=O)C1(O)c2ccccc2CCc2ccccc21 (stereo not drawn)	inactive: -0.6%
COc1ccccc1OP(C)(=O)Nc1c(C)cccc1C (stereo not drawn)	inactive: 0.9%
CCOC(=O)C(CC)C1=NC(C)(C)Cc2ccccc21.O=[N+]([O-])c1cc([N+](=O)[O-])c(O)c([N+](=O)[O-])c1 (stereo not drawn)	inactive: -1.2%
O=[N+]([O-])c1cc([N+](=O)[O-])c(Nc2nnnn2CCO)c([N+](=O)[O-])c1	inactive: 0.4%
CN(C)C1(CNC(=O)c2ccc(S(C)(=O)=O)cc2)CCCCC1	inactive: -1.3%
O=C(/C=C/c1ccccc1)OC1CN2CCC1CC2 (stereo not drawn)	inactive: -1%
CC1CCC(C(C)C)C(OP(=O)(Nc2ccccn2)c2ccccc2)C1 (stereo not drawn)	inactive: 2.8%
COc1cc(C2NCCC3(OCCO3)C2(C)C)cc(OC)c1OC.O=[N+]([O-])c1cc([N+](=O)[O-])c(O)c([N+](=O)[O-])c1 (stereo not drawn)	inactive: -0.6%
CN(C(=O)Cc1ccc(Cl)c(Cl)c1)[C@@H]1CCCC[C@H]1N1CCCC1	inactive: -2.2%
CC(C)/C=N\N=C(\N)N[N+](=O)[O-]	inactive: 0.3%
Cc1nc2ccc3ccccc3c2s1.O=[N+]([O-])c1cc([N+](=O)[O-])c(O)c([N+](=O)[O-])c1	inactive: -2%
O=[As](O)(c1ccccc1Br)c1ccccc1Br	inactive: -2.1%
